# Results published in patent publication US10524471B2, “Compositions and methods for increasing salt tolerance in plants” (King Abdullah University of Science and Technology, priority 2016, dated 2020).
# Test system: Arabidopsis seedlings
# Test: Arabidopsis salt stress tolerance assay (½ MS + 100 mM NaCl)
# Assay type: in vivo, Arabidopsis thaliana
# Conditions: SA187-inoculated plants cultivated with 3 μM DNPH
smiles,measurement,value
NNc1ccc([N+](=O)[O-])cc1[N+](=O)[O-],SA187-induced salt tolerance (beneficial index),14%
